Laboratory results: the kinase profiling compilation of Christmann-Franck et al. (2016)

The chains behind the UniProt entries cited, without tags or fusion partners. Where a name states a change or a piece, a line headed by the entry shows the natural chain unless it says otherwise.
UniProt P07947, whole entry, looked up: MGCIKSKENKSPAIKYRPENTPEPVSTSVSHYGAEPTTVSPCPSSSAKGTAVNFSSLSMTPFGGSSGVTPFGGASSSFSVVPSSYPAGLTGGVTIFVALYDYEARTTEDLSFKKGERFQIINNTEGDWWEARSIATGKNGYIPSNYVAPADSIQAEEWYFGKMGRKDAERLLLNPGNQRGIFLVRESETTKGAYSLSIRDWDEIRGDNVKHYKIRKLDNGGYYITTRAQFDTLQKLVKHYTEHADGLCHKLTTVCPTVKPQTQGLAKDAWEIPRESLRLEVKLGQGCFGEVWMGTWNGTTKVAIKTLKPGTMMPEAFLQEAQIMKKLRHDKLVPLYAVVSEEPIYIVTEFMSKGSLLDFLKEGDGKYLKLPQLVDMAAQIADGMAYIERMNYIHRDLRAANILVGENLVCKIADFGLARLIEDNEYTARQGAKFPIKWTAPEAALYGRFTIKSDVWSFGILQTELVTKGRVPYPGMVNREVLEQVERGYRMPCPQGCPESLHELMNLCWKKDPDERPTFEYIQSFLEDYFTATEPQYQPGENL
UniProt P08581: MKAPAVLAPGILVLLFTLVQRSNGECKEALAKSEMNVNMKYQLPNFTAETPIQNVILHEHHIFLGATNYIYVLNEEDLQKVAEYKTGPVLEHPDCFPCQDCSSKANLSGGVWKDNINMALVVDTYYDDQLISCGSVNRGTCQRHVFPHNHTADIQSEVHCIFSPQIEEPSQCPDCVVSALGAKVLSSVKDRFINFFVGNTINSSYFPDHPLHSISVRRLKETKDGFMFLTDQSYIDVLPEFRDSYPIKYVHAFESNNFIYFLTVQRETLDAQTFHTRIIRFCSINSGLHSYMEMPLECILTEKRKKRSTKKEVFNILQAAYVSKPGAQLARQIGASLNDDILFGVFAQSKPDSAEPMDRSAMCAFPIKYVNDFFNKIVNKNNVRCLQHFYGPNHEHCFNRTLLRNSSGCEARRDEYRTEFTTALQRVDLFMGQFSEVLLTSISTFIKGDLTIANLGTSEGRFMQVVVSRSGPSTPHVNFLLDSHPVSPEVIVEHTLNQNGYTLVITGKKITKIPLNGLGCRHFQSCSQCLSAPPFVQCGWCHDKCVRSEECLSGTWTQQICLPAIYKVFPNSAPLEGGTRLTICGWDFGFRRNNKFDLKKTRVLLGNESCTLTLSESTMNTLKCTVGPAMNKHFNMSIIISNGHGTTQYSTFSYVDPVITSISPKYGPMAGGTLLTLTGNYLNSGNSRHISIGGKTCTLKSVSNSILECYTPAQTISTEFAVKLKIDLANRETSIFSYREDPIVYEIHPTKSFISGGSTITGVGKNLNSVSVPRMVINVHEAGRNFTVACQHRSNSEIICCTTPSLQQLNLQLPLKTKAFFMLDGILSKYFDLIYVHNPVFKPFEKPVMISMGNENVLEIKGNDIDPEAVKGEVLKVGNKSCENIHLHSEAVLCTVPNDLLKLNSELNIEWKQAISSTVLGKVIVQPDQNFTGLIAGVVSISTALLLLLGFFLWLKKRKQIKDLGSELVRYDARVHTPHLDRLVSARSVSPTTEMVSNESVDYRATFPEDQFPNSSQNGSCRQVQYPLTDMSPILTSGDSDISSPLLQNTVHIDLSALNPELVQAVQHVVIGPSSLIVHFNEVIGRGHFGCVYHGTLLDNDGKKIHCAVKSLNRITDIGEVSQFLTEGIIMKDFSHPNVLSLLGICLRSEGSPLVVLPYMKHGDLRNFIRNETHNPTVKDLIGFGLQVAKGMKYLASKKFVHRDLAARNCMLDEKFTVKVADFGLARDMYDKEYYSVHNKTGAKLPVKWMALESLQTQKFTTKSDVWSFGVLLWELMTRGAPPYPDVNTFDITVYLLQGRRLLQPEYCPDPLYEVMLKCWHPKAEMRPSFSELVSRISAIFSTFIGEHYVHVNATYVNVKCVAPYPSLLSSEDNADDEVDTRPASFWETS
UniProt Q9UF33: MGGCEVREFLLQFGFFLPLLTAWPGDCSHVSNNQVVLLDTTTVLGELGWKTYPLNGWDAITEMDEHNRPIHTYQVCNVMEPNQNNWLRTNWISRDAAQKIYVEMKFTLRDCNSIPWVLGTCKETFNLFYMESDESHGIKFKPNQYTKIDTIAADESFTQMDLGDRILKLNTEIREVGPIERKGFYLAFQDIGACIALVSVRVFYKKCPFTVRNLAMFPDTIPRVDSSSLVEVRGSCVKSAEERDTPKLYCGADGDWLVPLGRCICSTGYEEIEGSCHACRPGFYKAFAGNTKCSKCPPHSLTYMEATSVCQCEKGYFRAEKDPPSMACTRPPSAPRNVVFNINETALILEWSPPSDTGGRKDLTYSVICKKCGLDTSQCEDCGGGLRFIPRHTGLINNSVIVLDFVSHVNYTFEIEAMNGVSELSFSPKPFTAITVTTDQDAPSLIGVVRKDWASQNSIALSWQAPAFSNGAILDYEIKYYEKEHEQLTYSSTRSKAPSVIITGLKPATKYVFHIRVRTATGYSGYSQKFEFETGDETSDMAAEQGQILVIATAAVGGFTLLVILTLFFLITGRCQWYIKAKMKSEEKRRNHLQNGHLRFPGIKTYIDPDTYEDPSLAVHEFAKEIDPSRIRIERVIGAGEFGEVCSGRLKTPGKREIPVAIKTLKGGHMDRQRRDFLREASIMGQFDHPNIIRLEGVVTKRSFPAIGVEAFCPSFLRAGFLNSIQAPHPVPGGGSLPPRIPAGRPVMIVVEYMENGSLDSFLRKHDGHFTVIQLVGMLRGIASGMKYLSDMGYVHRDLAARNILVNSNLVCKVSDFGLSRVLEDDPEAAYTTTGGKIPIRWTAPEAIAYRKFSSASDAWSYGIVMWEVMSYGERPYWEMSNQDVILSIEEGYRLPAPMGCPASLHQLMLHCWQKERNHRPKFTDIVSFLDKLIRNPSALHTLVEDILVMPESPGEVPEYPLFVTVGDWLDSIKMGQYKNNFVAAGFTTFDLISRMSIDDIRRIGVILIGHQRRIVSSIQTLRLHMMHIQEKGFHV
UniProt P52333: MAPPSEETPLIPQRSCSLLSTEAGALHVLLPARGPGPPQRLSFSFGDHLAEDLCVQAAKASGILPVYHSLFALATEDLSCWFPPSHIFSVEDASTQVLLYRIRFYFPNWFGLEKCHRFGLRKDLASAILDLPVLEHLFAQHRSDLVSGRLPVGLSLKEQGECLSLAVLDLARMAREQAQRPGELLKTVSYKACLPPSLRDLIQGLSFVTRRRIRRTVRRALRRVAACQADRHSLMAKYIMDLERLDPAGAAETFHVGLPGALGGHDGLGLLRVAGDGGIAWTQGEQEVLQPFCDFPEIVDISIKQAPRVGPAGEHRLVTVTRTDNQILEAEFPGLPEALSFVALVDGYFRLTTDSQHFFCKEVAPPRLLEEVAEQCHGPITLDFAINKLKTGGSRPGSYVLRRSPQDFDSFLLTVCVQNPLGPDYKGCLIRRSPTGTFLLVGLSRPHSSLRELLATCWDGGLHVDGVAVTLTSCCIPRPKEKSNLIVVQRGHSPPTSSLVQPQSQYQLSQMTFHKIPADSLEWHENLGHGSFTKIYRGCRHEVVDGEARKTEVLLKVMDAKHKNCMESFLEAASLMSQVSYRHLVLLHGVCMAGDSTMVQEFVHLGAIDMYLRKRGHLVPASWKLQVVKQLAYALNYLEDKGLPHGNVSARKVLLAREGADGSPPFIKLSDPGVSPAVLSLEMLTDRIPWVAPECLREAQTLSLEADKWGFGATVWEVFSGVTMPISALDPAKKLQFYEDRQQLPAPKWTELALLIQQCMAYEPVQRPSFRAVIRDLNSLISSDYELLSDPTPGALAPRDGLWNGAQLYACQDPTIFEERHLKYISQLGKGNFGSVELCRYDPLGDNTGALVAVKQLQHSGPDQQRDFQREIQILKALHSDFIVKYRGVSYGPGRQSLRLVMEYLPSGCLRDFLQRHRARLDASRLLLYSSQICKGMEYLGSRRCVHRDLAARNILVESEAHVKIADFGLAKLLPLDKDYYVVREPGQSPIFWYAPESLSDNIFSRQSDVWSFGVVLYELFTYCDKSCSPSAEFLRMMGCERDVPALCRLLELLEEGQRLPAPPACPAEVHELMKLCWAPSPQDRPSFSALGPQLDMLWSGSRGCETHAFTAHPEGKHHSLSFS

Tests used:
Experiment in all cases: Caliper, Mobility shift assay off-chip
YES1 (human) = YES1 (human) (UniProt P07947); conditions: compound 0.02 µM
MET (human) = MET (human) (UniProt P08581); conditions: compound 0.02 µM
EPHA6 (human) = EPHA6 (human) (UniProt Q9UF33); conditions: compound 0.001 µM
JAK3 JH1 JH2 (human) = JAK3 JH1 JH2 (human) (UniProt P52333); conditions: compound 0.02 µM

inhibition (YES1 (human)): 9.1%
inhibition (MET (human)): -3.6%
inhibition (EPHA6 (human)): -5.1%
inhibition (JAK3 JH1 JH2 (human)): 7.5%
SMILES: CNC(=O)c1ccccc1Sc1ccc2c(/C=C/c3ccccn3)n[nH]c2c1
